This is an account of results in ChEMBL document CHEMBL1149252, “Synthesis and structure-activity relationships of 4-alkynyloxy phenyl sulfanyl, sulfinyl, and sulfonyl alkyl hydroxamates as tumor necrosis factor-alpha converting enzyme and matrix metalloproteinase inhibitors” (J Med Chem, 2004).

Chains of the proteins cited; added tags and fusions are not shown. Lines headed by an entry give the natural chain unless they say otherwise; changes in a name come on top.
UniProt P78536: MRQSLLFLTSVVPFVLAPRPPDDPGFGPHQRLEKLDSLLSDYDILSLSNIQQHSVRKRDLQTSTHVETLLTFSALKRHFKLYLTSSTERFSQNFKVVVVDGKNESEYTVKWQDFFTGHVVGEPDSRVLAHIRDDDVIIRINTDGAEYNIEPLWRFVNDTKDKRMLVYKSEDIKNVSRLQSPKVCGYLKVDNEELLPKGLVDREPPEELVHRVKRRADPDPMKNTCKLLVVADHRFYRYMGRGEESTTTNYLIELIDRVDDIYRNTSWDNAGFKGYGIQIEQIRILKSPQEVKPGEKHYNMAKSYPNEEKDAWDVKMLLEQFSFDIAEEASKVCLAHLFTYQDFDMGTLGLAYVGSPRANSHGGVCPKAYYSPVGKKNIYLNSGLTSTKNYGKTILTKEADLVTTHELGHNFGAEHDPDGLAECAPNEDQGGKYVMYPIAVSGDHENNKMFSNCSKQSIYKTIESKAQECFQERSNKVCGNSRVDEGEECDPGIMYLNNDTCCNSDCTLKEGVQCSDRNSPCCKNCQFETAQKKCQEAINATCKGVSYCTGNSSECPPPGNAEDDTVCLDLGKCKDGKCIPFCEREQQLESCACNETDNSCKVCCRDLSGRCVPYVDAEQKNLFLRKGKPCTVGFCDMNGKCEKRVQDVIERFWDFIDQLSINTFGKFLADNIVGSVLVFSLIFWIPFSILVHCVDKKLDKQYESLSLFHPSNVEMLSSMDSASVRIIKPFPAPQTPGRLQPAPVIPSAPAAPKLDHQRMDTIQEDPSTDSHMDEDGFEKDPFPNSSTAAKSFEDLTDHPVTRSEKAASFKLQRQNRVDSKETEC

One may read the IC50 as the midpoint of a concentration-inhibition curve. Low readings indicate greater potency, high ones weaker potency.

The assay deals with Disintegrin and metalloproteinase domain-containing protein 17 (Homo sapiens, UniProt P78536).

Regarding `CC#CCOc1ccc([S@@+]([O-])[C@H](C(=O)NO)C(C)C)cc1`, the midpoint of inhibition, the IC50, lay at 48 nM.
